System: MDR genes (MRP2, MRP3, MRP5, MXR) in HCT116 IC60 CPTR cells
Conditions: 100 nM compound alone, 72 hours

Compound: CN1CCN(C2=Nc3ccccc3Oc3ccc(Cl)cc32)CC1.O=C(O)CCC(=O)O [C17, Loxapine succinate]
- transcript levels of MDR genes: do not alter the transcript levels of MDR genes

— patent US20240180881A1, “METHODS FOR DECREASING RESISTANCE TO CHEMOTHERAPY” (National Institute of Immunology, priority 2022, published 2024)
